Laboratory results taken from PMC9726900.
pKd: −log10 of the molar value. Each block holds one substance with its values, some of them ahead of it.

Legend:
[1] = tested on: CHD4-IDR2-del+ (Homo sapiens); experiment: MST; details: 3 mM Mg2+ in dilution buffer; CHD4: 50 mM HEPES pH 7.5, NaCl up to 50 mM and MgCl2 up to 3 mM (from dilution buffer), 100 ng/uL BSA, 0.5% glycerol, 25 nM Cy5 substrate; C1bC2a: 20 mM HEPES …
[2] = tested on: CHD4(1-1540) (Homo sapiens); experiment: MST; details: CHD4: 50 mM HEPES pH 7.5, NaCl up to 50 mM and MgCl2 up to 3 mM (from dilution buffer), 100 ng/uL BSA, 0.5% glycerol, 25 nM Cy5 substrate; C1bC2a: 20 mM HEPES …
[3] = biological target: 46w60 nucleosome (recombinant human histone octamer on Widom 601 DNA with 46-bp and 60-bp flanks), Cy5-labelled (human) (UniProt P0C0S8); experiment: MST; details: enzyme
[4] = biological target: 46w60 nucleosome (recombinant human histone octamer on Widom 601 DNA with 46-bp and 60-bp flanks), Cy5-labelled, P0C0S8;P62807;P68431;P62805; experiment: microscale thermophoresis (MST); details: parent: 45

Substance: 46w60 nucleosome
pKd [1]: 6.60
pKd [2]: 6.60

pKd [3]: 6.60
Substance: CHD4-IDR2-del+ (from UniProt Q14839 1-226; Q14839 363-1912)

pKd [4]: 6.60
Substance: WT CHD4 (human chromodomain helicase DNA-binding protein 4, full length) (from UniProt Q14839) IDR2-del+ (residues 227-362 replaced by an alpha-synuclein sequence of the same length; single substitutions not printed)
